This note sets out measurements from PubChem BioAssay AID463115 (University of Pittsburgh Molecular Library Screening Center, 2010).

Sequences of proteins named here, by UniProt entry; tags and fusion partners are left off.
UniProt P09958, whole entry, looked up: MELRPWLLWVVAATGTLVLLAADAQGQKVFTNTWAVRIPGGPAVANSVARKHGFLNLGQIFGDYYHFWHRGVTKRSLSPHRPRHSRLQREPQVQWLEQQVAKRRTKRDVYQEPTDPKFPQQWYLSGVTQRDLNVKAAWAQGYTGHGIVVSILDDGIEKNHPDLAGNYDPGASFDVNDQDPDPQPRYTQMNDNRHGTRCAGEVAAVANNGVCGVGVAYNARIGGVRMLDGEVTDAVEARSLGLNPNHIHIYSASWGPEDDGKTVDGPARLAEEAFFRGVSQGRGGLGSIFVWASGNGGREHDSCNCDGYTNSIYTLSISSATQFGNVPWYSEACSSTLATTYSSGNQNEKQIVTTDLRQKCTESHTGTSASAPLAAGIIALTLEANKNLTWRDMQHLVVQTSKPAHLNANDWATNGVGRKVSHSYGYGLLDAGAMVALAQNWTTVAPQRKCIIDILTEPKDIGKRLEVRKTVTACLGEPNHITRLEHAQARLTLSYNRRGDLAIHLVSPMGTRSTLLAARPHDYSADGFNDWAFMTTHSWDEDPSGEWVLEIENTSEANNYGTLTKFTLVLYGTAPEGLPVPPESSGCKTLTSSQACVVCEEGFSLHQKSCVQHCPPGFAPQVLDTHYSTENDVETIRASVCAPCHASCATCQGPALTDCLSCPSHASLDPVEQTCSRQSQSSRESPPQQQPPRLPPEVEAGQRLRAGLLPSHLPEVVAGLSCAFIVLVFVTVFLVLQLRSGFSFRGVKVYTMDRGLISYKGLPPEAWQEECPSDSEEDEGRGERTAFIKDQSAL

The structures appear in SMILES notation. This is a selection; strong and weak results do not stand in their true shares. Active and inactive are the calls of the source. No stated cut-off is given here; in the data, active means inhibition above about 25%; inactive means the rest.

In this assay the target is Furin (Homo sapiens) (UniProt P09958). Put plainly: human furin inhibitors, primary screen, biochemical, fluorescence intensity (AID 463115). The conditions noted are these: purified furin, fluorogenic substrate cleavage, hits give high values; at 30 µM unless noted.
Broadly, the inhibition is the change of the read-out against control, counted positive when it falls. As to `CS(=O)(=O)c1cc([N+](=O)[O-])c2no[n+]([O-])c2c1`, the inhibition is inactive: 4.79%.

On to `O=C(O)COc1ccc([As](=O)(O)O)cc1[N+](=O)[O-]`, for which the inhibition was inactive: -9.79%.

Regarding `Nc1ccccc1[As](=O)(O)c1ccccc1`, the inhibition was inactive: -19.9%.

As to `ClCCSc1nnc(-c2cccnc2)o1`, the inhibition was inactive: -19.1% [at 20 µM].

Regarding `CC(C)c1ccc(OP(=O)(Nc2ccccn2)Oc2ccccc2F)cc1` (stereo not drawn), the inhibition was inactive: -5.03%.

As for `O=[N+]([O-])c1cc([N+](=O)[O-])c(-c2ccn[nH]2)s1`, the inhibition is inactive: -8.66%.

As to `CCN(CC)C(=S)SC(NC=O)C(Cl)(Cl)Cl` (stereo not drawn), the inhibition is inactive: -21.1% [at 20 µM].

Turning to `CC(C)NC(=O)NP(=O)(Oc1ccccc1)Oc1ccccc1`, the inhibition is inactive: -29.7%.

Consider `C[As](=O)(O)c1cccc(C(=O)O)c1`, for which the inhibition was inactive: -12.2%.

As for `O=[As](O)(c1ccc(O)cc1)c1ccccc1O`, the inhibition was inactive: 0.371%.

With `Cc1ccc(OP(=O)(Nc2ccc([N+](=O)[O-])cn2)Oc2ccc(C)cc2)cc1`, the inhibition was inactive: -7.57%.

For `Cc1ccc2nc3c(c(C)c2c1)CC(C(Cl)Cl)S3` (stereo not drawn), the inhibition is inactive: -9.76%.

In the case of `COc1ccc(N/C(=N/P(=O)(N2CCOCC2)N2CCOCC2)N2CCOCC2)cc1`, the inhibition is inactive: -16.6%.

For the compound `Cc1c2c(nc3ccccc13)SC(C(Cl)Cl)C2` (stereo not drawn), the inhibition was inactive: -15.6%.

For the compound `Cc1cc(=O)[nH]c(N[N+](=O)[O-])n1`, the inhibition was inactive: -21.9%.

Consider `O=C(OC1CN2CCC1CC2)C12CC3CC(CC(C3)C1)C2` (stereo not drawn), for which the inhibition was inactive: -1.16%.

As to `COc1cc(I)ccc1[As](=O)(O)O`, the inhibition was inactive: -18.2%.

Consider `COc1ccc2nc(NP(=O)(c3ccccc3)c3ccccc3)sc2c1`, for which the inhibition was inactive: -15%.

In the case of `CCOC(=O)c1ccc(NC(=O)C(C)(CCl)SC)cc1` (stereo not drawn), the inhibition is inactive: -28.6%.

Take `CCC(C)N(CC(C)C)C(=S)SC(NC(C)=O)C(Cl)(Cl)Cl` (stereo not drawn): the inhibition is inactive: -6.21% [at 20 µM].

In the case of `COP1(=S)c2c(C)nn(CCC#N)c2N=C(c2ccc(F)cc2)N1C` (stereo not drawn), the inhibition is inactive: -22.5% [at 20 µM].

In the case of `O=C(COc1ccccc1)OC1CN2CCC1CC2` (stereo not drawn), the inhibition was inactive: -11.7%.

`CCOC(=O)Nc1cccc([As](=O)(O)O)c1`: the inhibition was inactive: -19.9%.

Turning to `Cc1cc(SC(NC=O)C(Cl)(Cl)Cl)ncn1` (stereo not drawn), the inhibition is inactive: -16.8%.

As to `O=P(Nc1ccccn1)(c1cccc2ccccc12)c1cccc2ccccc12`, the inhibition is inactive: -24.2%.

Regarding `O=[N+]([O-])c1ccc(Nc2ccc(Oc3ccc([N+](=O)[O-])cc3[N+](=O)[O-])cc2)c([N+](=O)[O-])c1`, the inhibition was inactive: -1.57%.

Take `CCOC(=O)Nc1ccc([As](=O)(O)O)c(O)c1`: the inhibition was inactive: -26.5%.

For `Cc1cc(SC(NC(=O)c2ccccc2)C(Cl)(Cl)Cl)nc(C(C)C)n1` (stereo not drawn), the inhibition is inactive: -17.3%.
